From article PMC12144310, “TANGO2 binds crystallin alpha B and its loss causes desminopathy” (Nature Communications, 2025)

Biological target: T1, TANGO2 (Homo sapiens, UniProt Q6ICL3)
T1 construct: labelled with RED-tris-NTA
T1 sequence (Q6ICL3 1-276): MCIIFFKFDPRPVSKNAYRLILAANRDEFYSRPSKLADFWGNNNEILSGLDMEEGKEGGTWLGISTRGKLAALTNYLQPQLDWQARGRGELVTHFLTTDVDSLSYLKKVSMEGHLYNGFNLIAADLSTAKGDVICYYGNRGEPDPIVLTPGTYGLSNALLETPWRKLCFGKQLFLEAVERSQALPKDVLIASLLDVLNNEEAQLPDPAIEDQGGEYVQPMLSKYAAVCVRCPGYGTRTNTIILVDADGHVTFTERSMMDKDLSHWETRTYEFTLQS
Assay: microscale thermophoresis (MST)
Format: binding

Kd: 43 µM
SMILES: C=CC1=C(C)C2=Cc3c(C=C)c(C)c4[n]3[Fe]([Cl])[n]3c(c(C)c(CCC(=O)O)c3=CC3=NC(=C4)C(C)=C3CCC(=O)O)=CC1=N2 [hemin]
